Laboratory results from patent publication USRE49361E1, “Fused bicyclic (hetero)aromatic compounds useful for the treatment of cancers” (JAZZ PHARMACEUTICALS IRELAND LIMITED, priority 2014, dated 2023).
Entries after “also recorded” stand apart in the source; their conditions may differ.

System: C-RAF-mediated ERK activation in B-RAF^WT IPC-298 cells (NRAS^Q61L)
Assay: IPC-298 AlphaScreen SureFire pERK1/2 cellular assay
Assay type: cell-based, human
Details: 1 hour treatment, in comparison to Dabrafenib

| Compound | paradoxical activation of MAPK pathway (ERK phosphorylation) relative to Dabrafenib |
| --- | --- |
| O=C1CCc2c(Oc3ccc4c(c3)CC(c3nc(-c5ccccc5)c[nH]3)CO4)ccnc2N1 (stereo not drawn) [Example 3, 5-[3-(4-phenyl-1H-imidazol-2-yl)chroman-6-yl]oxy-3,4-dihydro-1H-1,8-naphthyridin-2-one] | reduced paradoxical activation; also recorded: reduced paradoxical activity |
| O=C1CCc2c(Oc3ccc4c(c3)CC(c3nc(-c5ccccc5)c[nH]3)CO4)ccnc2N1 (stereo not drawn) [Example 3B, 5-[3-(4-phenyl-1H-imidazol-2-yl)chroman-6-yl]oxy-3,4-dihydro-1H-1,8-naphthyridin-2-one] | reduced paradoxical activity |
| O=C1CCc2c(Oc3ccc4c(c3)CC(c3nc(-c5ccccc5)c[nH]3)CO4)ccnc2N1 (stereo not drawn) [Example 3A, 5-[3-(4-phenyl-1H-imidazol-2-yl)chroman-6-yl]oxy-3,4-dihydro-1H-1,8-naphthyridin-2-one] | reduced paradoxical activity |
